Literature values, collected in patent US20230381279A1, “PHARMACEUTICAL COMPOSITION FOR PREVENTING OR TREATING LUPUS-RELATED DISEASES COMPRISING GIP DERIVATIVE OR LONG-ACTING CONJUGATE THEREOF” (HANMI PHARM. CO., LTD., priority 2020, published 2023).

Settings: J Clin Endocrinol Metab. 2000, 85(10):3575-81; cited from earlier work

## glucose-dependent insulinotropic polypeptide [native GIP]
  half-life in the human body: about 7 minutes
